Tests used:
[1] = target: T1, ferroportin (Homo sapiens, UniProt Q9NP59); assay: T47D internalization assay in presence of mouse serum albumin; assay type: cell-based; design: a human breast carcinoma adherent cell line which endogenously expresses ferroportin; host or cells: T47D; settings: Table 1D; T47D cells, 0.5% mouse serum albumin, 1 hr incubation; read-out: IC50: T47D MSA
T1 sequence (Q9NP59 1-571): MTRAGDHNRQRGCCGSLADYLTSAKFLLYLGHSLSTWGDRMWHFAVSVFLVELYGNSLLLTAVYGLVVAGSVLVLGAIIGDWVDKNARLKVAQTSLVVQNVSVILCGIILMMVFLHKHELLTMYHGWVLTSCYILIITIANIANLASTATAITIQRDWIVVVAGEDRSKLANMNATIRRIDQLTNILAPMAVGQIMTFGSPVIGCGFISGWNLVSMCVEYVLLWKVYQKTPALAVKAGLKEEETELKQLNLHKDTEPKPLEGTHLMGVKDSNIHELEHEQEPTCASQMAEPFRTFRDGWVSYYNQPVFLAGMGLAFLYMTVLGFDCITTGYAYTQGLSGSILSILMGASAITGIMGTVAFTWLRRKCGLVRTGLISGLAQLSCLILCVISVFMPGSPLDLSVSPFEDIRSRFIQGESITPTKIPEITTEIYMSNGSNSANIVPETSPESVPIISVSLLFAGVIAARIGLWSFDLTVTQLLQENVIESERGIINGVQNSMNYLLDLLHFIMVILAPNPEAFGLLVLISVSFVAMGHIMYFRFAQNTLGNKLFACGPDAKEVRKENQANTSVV
Summary of the method: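 T47D cells exposed 1 h to 10-point peptide dilutions (top ~5 μM) preincubated 30 min with 0.5% mouse serum albumin. Then 200 nM AF647-labelled ferroportin-binding detection peptide for 2 h. Flow cytometry MFI of live singlets, IC50 by 4-parameter fit.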

[2] = target: T1, ferroportin; assay: FPN internalization assay (FPN activity assay), loss of ferroportin-GFP fluorescence; assay type: cell-based; settings: Table 1D; HEK293 cells stably expressing ferroportin-GFP, compound at least 18 hours; read-out: IC50: FPN

- IC50 [1]: 0.1 to 10 nM
- IC50 [2]: 1 to 30 nM
SMILES: CC(C)CC(=O)N[C@@H](CCC(=O)O)C(=O)N[C@H](C(=O)N[C@@H](Cc1c[nH]cn1)C(=O)N[C@H](C(=O)N1CCC[C@H]1C(=O)N[C@@H](CCCCNC(=O)COCCOCCNC(=O)COCCOCCNC(=O)[C@H](CN)NC(=O)CCCc1ccc(I)cc1)C(=O)NCCCCCc1ccccc1)C(c1ccccc1)c1ccccc1)[C@@H](C)O [compound 84]

From patent publication US20250361280A1 (Protagonist Therapeutics, Inc., priority 2022, published 2025)
